According to patent US20120020915A1, “Compounds and Methods for Treating Cancer and Diseases of the Central Nervous System” (QUEENS UNIVERSITY AT KINGSTON, priority 2007, published 2012):

What was measured:
HO-1 (rat spleen) = molecular target: T1, HO-1 (rat spleen) (Rattus norvegicus, UniProt P06762); test: HO enzymatic activity, rat spleen microsomal fraction (CO formation from methemalbumin); type: biochemical; details: mean ± SD of replicate experiments
T1 construct: Spleen microsomes were used as a source of HO-1; from tissue; host or cells: spleen microsomal fraction of adult male Sprague-Dawley rats
T1 sequence (P06762 1-289): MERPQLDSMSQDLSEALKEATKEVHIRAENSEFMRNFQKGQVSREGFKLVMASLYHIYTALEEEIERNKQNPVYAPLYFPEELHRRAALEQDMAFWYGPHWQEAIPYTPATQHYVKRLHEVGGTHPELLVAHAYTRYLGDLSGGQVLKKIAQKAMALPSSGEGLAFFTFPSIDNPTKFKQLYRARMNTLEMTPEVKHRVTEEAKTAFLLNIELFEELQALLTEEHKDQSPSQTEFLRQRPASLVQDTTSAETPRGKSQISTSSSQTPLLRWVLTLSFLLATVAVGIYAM
Procedure: (§1) Incubations for HO activity analysis were done under conditions for which the rate of CO formation (pmol CO×min^−1×mg protein^−1) was linear with respect to time and microsomal protein concentration. Briefly, reaction mixtures (150 μL) consisting of 100 mM phosphate buffer (pH 7.4), 50 μM methemalbumin, and 1 mg/mL protein were pre-incubated with the inhibitors at final concentrations ranging from 0.1-100 μM for 10 minutes at 37° C. Reactions were initiated by adding NADPH at a final concentration of 1 mM and incubations were performed for an additional 15 minutes at 37° C.
(§2) Incubations for HO activity analysis were done under conditions for which the rate of CO formation (pmol CO/mg protein/minute) was linear with respect to time and microsomal protein concentration. […] Reactions were stopped by instantly freezing the reaction mixture on pulverized dry ice and CO formation was measured by gas chromatography using a TA 3000R Process Gas Analyzer (Trace Analytical/Ametek, Newark, Del., USA).
(§3) The values on the abscissa represent the decimal logarithm of the inhibitor's concentration (in μM), whereas the values of the activity on the ordinate are expressed as a percentage of the control experiments without inhibitor. […]

HO-2 (rat brain) = molecular target: T2, HO-2 (rat brain) (Rattus norvegicus, UniProt P23711); test: HO enzymatic activity, rat brain microsomal fraction (CO formation from methemalbumin); type: biochemical; details: mean ± SD of replicate experiments
T2 construct: brain microsomes were used as a source of HO-2; from tissue; host or cells: brain microsomal fraction of adult male Sprague-Dawley rats
T2 sequence (P23711 1-315): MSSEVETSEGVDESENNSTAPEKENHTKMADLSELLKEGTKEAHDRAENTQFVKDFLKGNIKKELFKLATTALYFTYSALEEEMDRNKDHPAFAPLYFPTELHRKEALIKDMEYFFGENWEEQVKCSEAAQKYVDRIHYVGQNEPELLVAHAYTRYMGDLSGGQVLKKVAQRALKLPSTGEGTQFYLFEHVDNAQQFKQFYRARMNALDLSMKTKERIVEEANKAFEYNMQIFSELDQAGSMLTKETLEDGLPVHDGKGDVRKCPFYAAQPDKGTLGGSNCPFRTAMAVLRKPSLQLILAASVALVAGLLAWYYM
Procedure: as §1, §2, §3

Question: Which results are given for “(2R,4R)-2-[2-(4-chlorophenyl)ethyl]-2-[1H-imidazol-1-yl)methyl]-4-[{(4-aminophenyl)thio}methyl]-1,3-dioxolane dihydrochloride [QC-24]”?
Answer: IC50 (HO-1 (rat spleen)): 47 ± 21 µM; IC50 (HO-2 (rat brain)): > 100 µM
